In patent US10179769B2, “Histone demethylase inhibitors” (CELGENE QUANTICEL RESEARCH, INC., priority 2012, dated 2019):

Test system: KYSE-150 esophageal carcinoma cell line
Assay: Cell proliferation assay, BrdU incorporation ELISA
Format: cell-based, human
Conditions: Homo sapiens; KYSE-150, BrdU incorporation after 168 hr compound incubation; read-out: Cellular IC50

IC50 | Compound
1 to 10 µM | COC(=O)c1ccncc1NCc1ccc(Cl)c(Cl)c1 [Preparation 14A, methyl 3-[(3,4-dichlorobenzyl)amino]pyridine-4-carboxylate]
1 to 10 µM | CC(C)Oc1ccc2c(c1)CCCC2CNc1cnccc1C(=O)O (stereo not drawn) [Example 64]
1 to 10 µM | COC(=O)c1ccncc1NCC12CC3CC(CC(C3)C1)C2 [Preparation 42A, methyl 3-[(adamantan-1-ylmethyl)amino]pyridine-4-carboxylate]
1 to 10 µM | O=C(O)c1ccncc1NCC1CCCc2cc(OCC(F)(F)F)ccc21 (stereo not drawn) [Example 90, 3-({[6-(2,2,2-trifluoroethoxy)-1,2,3,4-tetrahydronaphthalen-1-yl]methyl}amino)pyridine-4-carboxylic acid]
> 10 µM | COC(=O)c1ccncc1NCc1ccc(Cl)cc1 [Preparation 10A, methyl 3-[(4-chlorobenzyl)amino]pyridine-4-carboxylate]
1 to 10 µM | O=C(O)c1ccncc1NCC1CCCc2cc(OCC3CC3)ccc21 (stereo not drawn) [Example 81]
> 10 µM | COc1ccc2c(c1)CCC[C@H]2CNc1cnccc1C(=O)O [Example 62, 3-({[(1R)-6-methoxy-1,2,3,4-tetrahydronaphthalen-1-yl]-methyl}amino)pyridine-4-carboxylic acid]
> 10 µM | COC(=O)c1ccncc1NCc1ccc(Br)cc1 [Preparation 25A, methyl 3-[(4-bromobenzyl)amino]pyridine-4-carboxylate]
1 to 10 µM | O=C(O)c1ccncc1NCC1CCCc2ccc(Cl)cc21 (stereo not drawn) [Example 72, 3-{[(7-chloro-1,2,3,4-tetrahydronaphthalen-1-yl)methyl]-amino}pyridine-4-carboxylic acid]
> 10 µM | Cc1cccc(C#N)c1C1CC1 [Preparation 30A, 2-cyclopropyl-3-methyl-benzonitrile]
0.1 to 1 µM | O=C(O)c1ccncc1NCC1CCOc2cc(CCC3CC3)ccc21 (stereo not drawn) [Example 91, 3-({[7-(2-cyclopropylethyl)-3,4-dihydro-2H-chromen-4-yl]-methyl}amino) pyridine-4-carboxylic acid]
1 to 10 µM | O=C(O)c1ccncc1NC[C@H]1CCOc2cc(C3CC3)ccc21 [Example 87, 3-({[(4S)-7-cyclopropyl-3,4-dihydro-2H-chromen-4-yl]-methyl}amino) pyridine-4-carboxylic acid]
> 10 µM | CN1CCC(CNc2cnccc2C(=O)O)c2ccccc21 (stereo not drawn) [Example 82, 3{[(1-methyl-1,2,3,4-tetrahydroquinolin-4-yl)methyl]-amino}pyridine-4-carboxylic acid]
1 to 10 µM | O=C(O)c1ccncc1NCC1CCOc2cc(C3CC3)ccc21 (stereo not drawn) [Example 75, 3-{[(7-cyclopropyl-3,4-dihydro-2H-chromen-4-yl)-methyl]amino}pyridine-4-carboxylic acid]
> 10 µM | COC(=O)c1ccncc1NCc1cccc(C(F)(F)F)c1 [Preparation 32A, methyl 3-{[3-(trifluoromethyl)benzyl]amino}pyridine-4-carboxylate]
1 to 10 µM | O=C(O)c1ccncc1NCC1CCCc2cc(OCCC(F)(F)F)ccc21 (stereo not drawn) [Example 79]
> 10 µM | COC(=O)c1ccncc1NCc1ccc(C#N)cc1 [Preparation 5A, methyl 3-[(4-cyanobenzyl)amino]pyridine-4-carboxylate]
> 10 µM | Cc1ccc2c(c1)C(CNc1cnccc1C(=O)O)CCO2 (stereo not drawn) [Example 63, 3-{[(6-methyl-3,4-dihydro-2H-chromen-4-yl)methyl]-amino}pyridine-4-carboxylic acid]
1 to 10 µM | N#Cc1ccc(Cl)cc1C1CC1 [Preparation 26A, 4-chloro-2-cyclopropyl-benzonitrile]
> 10 µM | COC(=O)c1ccncc1NCc1ccc(C(F)(F)F)cc1 [Preparation 8A, methyl 3-{[4-(trifluoromethyl)benzyl]amino}pyridine-4-carboxylate]
0.1 to 1 µM | O=C(O)c1ccncc1NC[C@H]1CCOc2cc(-c3cccc(F)c3)ccc21 [Example 85, 3-({[(4S)-7-(3-fluorophenyl)-3,4-dihydro-2H-chromen-4-yl]-methyl}amino)pyridine-4-carboxylic acid]
0.1 to 1 µM | O=C(O)c1ccncc1NC[C@H]1CCOc2cc(-c3ccccc3)ccc21 [Example 83, 3-({[(4S)-7-phenyl-3,4-dihydro-2H-chromen-4-yl]-methyl}amino)pyridine-4-carboxylic acid]

The remaining lines, values behind:

Compound | IC50
CC1(CNc2cnccc2C(=O)O)CCCc2ccccc21 (stereo not drawn) [Example 49, 3-{[(1-methyl-1,2,3,4-tetrahydronaphthalen-1-yl)methyl]-amino}pyridine-4-carboxylic acid] | > 10 µM
O=C(O)c1ccncc1NC[C@H]1CCCc2ccccc21 [Example 47, 3-{[(1S)-1,2,3,4-tetrahydronaphthalen-1-yl-methyl]amino}-pyridine-4-carboxylic acid] | 1 to 10 µM
O=C(O)c1ccncc1NCC1CCc2ccccc21 (stereo not drawn) [Example 45] | > 10 µM
O=C(O)c1ccncc1NC[C@H]1CCCc2cc(OCCC(F)(F)F)ccc21 [Example 99, 3-({[(1S)-6-(3,3,3-trifluoropropoxy)-1,2,3,4-tetrahydronaphthalen-1-yl]methyl}amino) pyridine-4-carboxylic acid] | 1 to 10 µM
Cc1ccc(CNc2cnccc2C(=O)O)o1 [Example 40, 3-{[(5-methylfuran-2-yl)methyl]amino} pyridine-4-carboxylic acid] | > 10 µM
O=C(O)c1ccncc1NCc1cc2ccccc2o1 [Example 41, 3-[(1-benzofuran-2-ylmethyl)amino] pyridine-4-carboxylic acid] | > 10 µM
O=C(O)c1ccncc1NC[C@@H]1CCCc2c(F)cccc21 [Example 57, 3-({[(1R)-5-fluoro-1,2,3,4-tetrahydronaphthalen-1-yl]-methyl}amino)pyridine-4-carboxylic acid] | > 10 µM
O=C(O)c1ccncc1NCc1cccc2ccccc12 [Example 28, 3-[(naphthalene-1-ylmethyl)amino]pyridine-4-carboxylic acid] | > 10 µM
O=C(O)c1ccncc1NCC1CCCc2ccc(C3CC3)cc21 (stereo not drawn) [Example 53, 3-{[(7-cyclopropyl-1,2,3,4-tetrahydronaphthalen-1-yl)-methyl]amino}pyridine-4-carboxylic acid] | 1 to 10 µM
O=C(O)c1ccncc1NCC1CCCc2ccccc21 (stereo not drawn) [Example 46, 3-[(1,2,3,4-tetrahydronaphthalen-1-yl-methyl)amino]-pyridine-4-carboxylic acid] | 1 to 10 µM
N#Cc1ccc(CNc2cnccc2C(=O)O)cc1 [Example 5, 3-[(4-cyanobenzyl)amino]pyridine-4-carboxylic acid] | > 10 µM
O=C(O)c1ccncc1NCc1ccccc1O [Example 17, 3-[(2-hydroxybenzyl)amino]pyridine-4-carboxylic acid] | > 10 µM
O=C(O)c1ccncc1NCc1ccc(Br)cc1 [Example 23, 3-[(4-bromobenzyl)amino]pyridine-4-carboxylic acid] | > 10 µM
COc1ccc(CNc2cnccc2C(=O)O)c(OC)c1 [Example 16, 3-[(2,4-dimethyoxybenzyl)amino]pyridine-4-carboxylic acid] | > 10 µM
O=C(O)c1ccncc1NCc1ccccc1C1CC1 [Example 19, 3-[(2-cyclopropylbenzyl)amino]pyridine-4-carboxylic acid] | > 10 µM
COc1ccc2c(c1)CCC[C@@H]2CNc1cnccc1C(=O)O [Example 61, 3-({[(1S)-6-methoxy-1,2,3,4-tetrahydronaphthalen-1-yl]-methyl}amino)pyridine-4-carboxylic acid] | 0.1 to 1 µM
O=C(O)c1ccncc1NC[C@H]1CCCc2c(F)cccc21 [Example 56, 3-({[(1S)-5-fluoro-1,2,3,4-tetrahydronaphthalen-1-yl]-methyl}amino)pyridine-4-carboxylic acid] | 1 to 10 µM
O=C(O)c1ccncc1NCc1ccc(Cl)cc1Cl [Example 18, 3-[(2,4-dichlorobenzyl)amino]pyridine-4-carboxylic acid] | > 10 µM
O=C(O)c1ccncc1NCc1ccc(Cl)cc1 [Example 10, 3-[(4-chlorobenzyl)amino]pyridine-4-carboxylic acid] | > 10 µM
Cc1cc(C)c2c(c1)C(CNc1cnccc1C(=O)O)CCC2 (stereo not drawn) [Example 52, 3-{[(5,7-dimethyl-1,2,3,4-tetrahydronaphthalen-1-yl)-methyl]amino}pyridine-4-carboxylic acid] | 0.1 to 1 µM
O=C(O)c1ccncc1NCc1ccc(Cl)c(Cl)c1 [Example 14, 3-[(3,4-dichlorobenzyl)amino]pyridine-4-carboxylic acid] | > 10 µM
O=C(O)c1ccncc1NCC1CCOc2ccccc21 (stereo not drawn) [Example 58, 3-[(3,4-dihydro-2H-chromen-4-ylmethyl)amino]pyridine-4-carboxylic acid] | > 10 µM
Cc1cccc(CNc2cnccc2C(=O)O)c1C1CC1 [Example 30, 3-[(2-cyclopropyl-3-methylbenzyl)amino] pyridine-4-carboxylic acid] | > 10 µM
COc1ccc2c(c1)CCCC2CNc1cnccc1C(=O)O (stereo not drawn) [Example 60, 3-{[(6-methoxy-1,2,3,4-tetrahydronaphthalen-1-yl)-methyl]amino}pyridine-4-carboxylic acid] | 1 to 10 µM
Cc1ccc(CNc2cnccc2C(=O)O)s1 [Example 39, 3-{[(5-methylthiophen-2-yl)methyl]amino} pyridine-4-carboxylic acid] | > 10 µM
O=C(O)c1ccncc1NCc1coc2ccccc12 [Example 38, 3-[(1-benzofuran-3-ylmethyl)amino] pyridine-4-carboxylic acid] | > 10 µM
O=C(O)c1ccncc1NCC1CCCc2ccc(F)cc21 (stereo not drawn) [Example 50, 3-{[(7-fluoro-1,2,3,4-tetrahydronaphthalen-1-yl)methyl]amino}pyridine-4-carboxylic acid] | 1 to 10 µM
O=C(O)c1ccncc1NCc1ccc(Cl)cc1C1CC1 [Example 26, 3-[(4-chloro-2-cyclopropylbenzyl)amino] pyridine-4-carboxylic acid] | > 10 µM

Same assay, conditions: KYSE-150, BrdU incorporation after 168 hr compound incubation; read-out: Cellular IC50

IC50 | Compound
1 to 10 µM | 3-{[(6-chloro-1-hydroxy-1,2,3,4- tetrahydronaphthalen-1-yl)methyl]amino} pyridine-4-carboxylic acid [Example 67]
